## scFv variants of Ab-14 (light chain) against a SARS-CoV-2 spike peptide

Binding partner: SARS-CoV-2 spike HR2 peptide, sequence PDVDLGDISGINAS.

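The parent was found by panning a naive human phage display library on the peptide. This is the validation round: designs drawn from the data on random variants, tested in the same kind of assay. Several design methods are mixed in this list. The assay is AlphaSeq: two haploid yeast populations carry antibody and antigen on their surface. Mating (16 h, 30 °C) was followed by selection of diploids and sequencing of their barcodes. A regression on co-assayed BCL2-family reference pairs converts the normalised counts of each replicate to an apparent Kd. The assay was run in six technical replicates.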

Parent scFv Ab-14: VH joined to VL by three GGGGS repeats. Changes lie in the light chain CDRs alone.
VH: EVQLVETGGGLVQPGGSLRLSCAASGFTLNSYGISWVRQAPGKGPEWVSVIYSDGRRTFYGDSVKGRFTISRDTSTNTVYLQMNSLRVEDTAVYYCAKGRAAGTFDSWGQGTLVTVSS
VL: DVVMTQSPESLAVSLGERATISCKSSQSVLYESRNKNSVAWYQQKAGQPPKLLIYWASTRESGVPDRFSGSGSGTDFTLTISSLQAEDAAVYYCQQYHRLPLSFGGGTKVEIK

Each variant is given by its three light chain CDRs, as the data file delimits them; those of the parent are KSSQSVLYESRNKNSVA, WASTRES, QQYHRLPLS.
Kd is apparent (estimated from mating counts) and averaged on the log scale over replicates with a signal. Smaller is tighter.
Where no diploid with the target was found in any replicate, the entry reads "not detected": below detection, most likely a poor binder, though not proof of it.
Entries are sorted by rising average, undetected variants last.
As a blank, each scFv also met three strains without target: over all light chain designs, 4% of these pairings were detected, typically at 430 nM and seldom below 38 nM. For each scFv, signals with the empty controls are counted beside the result.
The authors averaged sequences with at least three values out of six and counted those with two or fewer as poor binders.
A sequence measured in both rounds can read differently, since the two assays cover different ranges.

CDR-L1	CDR-L2	CDR-L3	Kd	detected	signal with controls
QSSQSWLYESRNKNSVA	GASTRES	QQYHRLPLS	340 pM	6 of 6	1 of 18
KLSQSDLYESRNKMSVA	NASTRES	QQYHRLPLS	390 pM	6 of 6	0 of 18
HVSPSVLYESRNKNSVA	NGSTREV	QQYHRLPLS	470 pM	6 of 6	1 of 18
KIQSHLSQSFASKNNIA	DRVLSAE	QQYNRLPLV	480 pM	6 of 6	1 of 18
KLSQSMLYESRNWNSVA	NASTRES	QQYHRLPLS	520 pM	6 of 6	1 of 18
ASSQGWLYEQRNKNSVA	GASTRED	QQYHRLPLS	580 pM	6 of 6	0 of 18
KLSQSVLMESRNKNSVA	NASTREE	QQYHRLPLS	620 pM	6 of 6	3 of 18
KLSQSVMYEERNKNSVA	NASTRES	QQYHRLPLS	740 pM	6 of 6	1 of 18
KSSGSVLYESRNSNSVA	NASTRES	QQYHRLPLS	960 pM	6 of 6	0 of 18
MLNDAYQGDIAQNQNVA	SADVLTH	QQYNKLPLS	1.0 nM	6 of 6	0 of 18
TLTQSVDMESHNKNSVA	DLSTRGS	QQYHRLPLS	1.1 nM	6 of 6	1 of 18
KFQQSVLYESRNKNSVA	DASTRES	QQYHRLPLS	1.2 nM	6 of 6	0 of 18
KESQSGLYESRNKNSVA	GASTRES	QQYHRLPLS	1.3 nM	6 of 6	1 of 18
NFGQKMALYTGDRYSIA	DATVRAD	QQYSRLPLT	1.4 nM	6 of 6	0 of 18
KLGQSVAMTSRMKNNVA	DLNERER	QQYYRLPLS	1.5 nM	6 of 6	0 of 18
KDLQSVLYESRNKNSVA	HASTRED	QQYHQLPLS	1.6 nM	6 of 6	1 of 18
KIGLTLNTLLHQKNNVA	DLVTREN	QQYFRLPLS	1.8 nM	3 of 6	0 of 18
KVDFSWWYESRNKNSVA	NASTREQ	QQYHRLPLS	1.9 nM	6 of 6	2 of 18
KLDMAELGYSQLSSSVA	GSANKCQ	QQYFRLPLS	2.1 nM	6 of 6	0 of 18
KSSSSVLYESMNKNSVA	SASTRES	QQYHRLPLS	2.1 nM	6 of 6	1 of 18
IISQVDDYLSRNTNSIA	DQTTRGS	QQYDRLPLS	2.2 nM	6 of 6	1 of 18
KSSISGLYESRNKNSVA	AASTREL	QQYHRLPLS	2.4 nM	6 of 6	1 of 18
KISQMIRVGATHSNSIA	EEVTRAK	QQYHRLPLA	2.8 nM	6 of 6	0 of 18
KYAQSMLYESRNFNNVA	AASTRES	QQYHRLPLS	3.6 nM	2 of 6	0 of 18
KLSMITGHMQTTKNNVA	EMETREN	QQYNRLPLA	4.1 nM	6 of 6	2 of 18
KFSQTVNSMSVSKSAVA	EMSTRPE	QQYNRLPLS	6.6 nM	6 of 6	5 of 18
KLSNSNLYESRNGNSVA	NASTRYH	QQYHRLPLS	6.8 nM	6 of 6	0 of 18
KISQSVLYESRNKNSVA	EASTRMS	QQYHRLPLS	7.0 nM	6 of 6	2 of 18
YVSIQAAQDRNQQSSIA	GVDYREK	QQYYHLPLS	8.8 nM	6 of 6	1 of 18
KIYQGINTHMGAHSSIA	QEETRLE	QQYAHLPLS	9.5 nM	6 of 6	0 of 18
KSSQSVLYESMNENSVA	GASTRES	QQYHRGPLS	11 nM	6 of 6	1 of 18
KAPQSQLYESRNKNSVA	GASTRES	QQYHRLPLI	39 nM	6 of 6	0 of 18
KISQFVLYESTNKNSVA	WASTRES	QQYHRLPLS	48 nM	1 of 6	0 of 18
TISQSFMMENQFKNSVA	QASTRES	QCYDRLPLS	61 nM	6 of 6	2 of 18
KLRQQTLYESRNKNSVA	QASTREE	QQYHRLPLS	75 nM	6 of 6	0 of 18
KSSQSVLYESRNKYSVA	SASTRES	QQYHRLPLS	97 nM	4 of 6	1 of 18
KSSQSLLYESRNKNSVA	WASDRES	QQYHRLPLS	120 nM	6 of 6	0 of 18
KISESVLYESRNKNSVA	WASTRES	QQYHDLPLS	170 nM	5 of 6	0 of 18
KSSQSVLYESRNCNSVA	WASERES	QQYHRLPLS	250 nM	6 of 6	0 of 18
MVSQLMLWGLHAKNSIA	EAEHRIN	QQYDRLPLF	270 nM	5 of 6	2 of 18
KSSQSVLYESRNKNSVA	WASTRLS	QQYHRLPLS	280 nM	4 of 6	2 of 18
QLELVQNGDTISENSVA	HAEVSGR	QQYSQLPLI	680 nM	1 of 6	0 of 18
KSSQSVLYESRNKNSVA	WASTRES	QSYHRLPLI	940 nM	2 of 6	0 of 18
KIGHGLTTEMRNRNSVA	QTETRVT	QHYHRLPLS	1.1 µM	3 of 6	2 of 18
MIYGAQRELGLAANSIA	DNVTRYD	QQYERLPLS	not detected	0 of 6	0 of 18
MISDLTYYGLRNVNSVA	DLSTRGS	QQYDRLPLS	not detected	0 of 6	0 of 18
KISQSILFMSGMKNAIA	QMEMREE	QQYHRLPLS	not detected	0 of 6	0 of 18
KSSQSPLYESWNKNSVA	WASTRES	QQYHRLPLS	not detected	0 of 6	0 of 18

A selection of 5 entries from above:

CDR-L1,CDR-L2,CDR-L3,Kd,detected,signal with controls
KSSSSVLYESMNKNSVA,SASTRES,QQYHRLPLS,2.1 nM,6 of 6,1 of 18
KDLQSVLYESRNKNSVA,HASTRED,QQYHQLPLS,1.6 nM,6 of 6,1 of 18
KSSQSVLYESRNKNSVA,WASTRES,QSYHRLPLI,940 nM,2 of 6,0 of 18
TISQSFMMENQFKNSVA,QASTRES,QCYDRLPLS,61 nM,6 of 6,2 of 18
KFQQSVLYESRNKNSVA,DASTRES,QQYHRLPLS,1.2 nM,6 of 6,0 of 18

From the AlphaSeq antibody data of Li et al. 2023 (doi:10.1038/s41467-023-39022-2), copy in the FLAb collection.